According to ChEMBL document CHEMBL1649546, “Extended-spectrum properties of CMY-30, a Val211Gly mutant of CMY-2 cephalosporinase” (Antimicrob Agents Chemother, 2009):

Test system: Escherichia coli
Experiment: Selectivity ratio of Kcat for Escherichia coli MC4100 Beta-Lactamase CMY-2 to Kcat for Escherichia coli MC4100 Beta-Lactamase CMY-30 Val211?Gly211 mutant

Compound `O=C(Cc1cccs1)N[C@@H]1C(=O)N2C(C(=O)O)=C(/C=C/c3ccc([N+](=O)[O-])cc3[N+](=O)[O-])CS[C@H]12` has a Ratio of 3.
